Laboratory results as given in US6376506B1, “Sulfamide-metalloprotease inhibitors” (Syntex (U.S.A.) LLC, priority 1997, dated 2002).

Tested on: Human Monomac 6 cells
Experiment: Inhibition of TNF release in vitro assay (LPS/PMA stimulated)
Details: Conc. 10 μM, LPS/PMA stimulated Monomac 6 cells, 2 h

## O=C(NO)[C@H](CSc1ccccc1)NS(=O)(=O)N1CCN(c2ccc(Cl)cn2)CC1
  % inhibition: 41%
